Literature values, collected in patent US20030032580A1, “Use of agonists or antagonists of the 5-HT7 receptor to treat disorders of the bladder” (Synaptic Pharmaceutical Corporation, priority 1999, published 2003).

Chains of the proteins cited; added tags and fusions are not shown. Residues count along the entry.
UniProt P28335, 33-458, species assumed: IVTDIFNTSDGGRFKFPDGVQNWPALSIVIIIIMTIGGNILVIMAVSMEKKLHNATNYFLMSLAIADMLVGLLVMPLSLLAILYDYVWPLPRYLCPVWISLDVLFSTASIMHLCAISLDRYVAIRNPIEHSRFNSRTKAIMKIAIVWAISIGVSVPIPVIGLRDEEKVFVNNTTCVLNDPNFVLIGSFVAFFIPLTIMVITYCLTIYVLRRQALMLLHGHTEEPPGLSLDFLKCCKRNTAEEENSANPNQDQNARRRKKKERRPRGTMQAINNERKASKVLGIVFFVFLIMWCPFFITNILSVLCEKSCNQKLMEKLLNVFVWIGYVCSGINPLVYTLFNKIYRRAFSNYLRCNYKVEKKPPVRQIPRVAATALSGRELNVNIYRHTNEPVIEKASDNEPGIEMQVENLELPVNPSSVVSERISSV

Molecular target: 5-HT2C (Homo sapiens, UniProt P28335)
Conditions: Hoyer, 1989; Hoyer et al., 1994; cited from earlier work

COC(=O)[C@H]1[C@H]2C[C@H]3c4[nH]c5ccccc5c4CCN3C[C@H]2CC[C@@H]1O [rauwolscine]
pKB, 5-HT2C: 5.8
